# Reference: PubChem BioAssay AID602438 (Sanford-Burnham Center for Chemical Genomics, 2012)
# Amino acid sequences for entries named in this document (tags omitted).
# UniProt O14786, whole entry, looked up: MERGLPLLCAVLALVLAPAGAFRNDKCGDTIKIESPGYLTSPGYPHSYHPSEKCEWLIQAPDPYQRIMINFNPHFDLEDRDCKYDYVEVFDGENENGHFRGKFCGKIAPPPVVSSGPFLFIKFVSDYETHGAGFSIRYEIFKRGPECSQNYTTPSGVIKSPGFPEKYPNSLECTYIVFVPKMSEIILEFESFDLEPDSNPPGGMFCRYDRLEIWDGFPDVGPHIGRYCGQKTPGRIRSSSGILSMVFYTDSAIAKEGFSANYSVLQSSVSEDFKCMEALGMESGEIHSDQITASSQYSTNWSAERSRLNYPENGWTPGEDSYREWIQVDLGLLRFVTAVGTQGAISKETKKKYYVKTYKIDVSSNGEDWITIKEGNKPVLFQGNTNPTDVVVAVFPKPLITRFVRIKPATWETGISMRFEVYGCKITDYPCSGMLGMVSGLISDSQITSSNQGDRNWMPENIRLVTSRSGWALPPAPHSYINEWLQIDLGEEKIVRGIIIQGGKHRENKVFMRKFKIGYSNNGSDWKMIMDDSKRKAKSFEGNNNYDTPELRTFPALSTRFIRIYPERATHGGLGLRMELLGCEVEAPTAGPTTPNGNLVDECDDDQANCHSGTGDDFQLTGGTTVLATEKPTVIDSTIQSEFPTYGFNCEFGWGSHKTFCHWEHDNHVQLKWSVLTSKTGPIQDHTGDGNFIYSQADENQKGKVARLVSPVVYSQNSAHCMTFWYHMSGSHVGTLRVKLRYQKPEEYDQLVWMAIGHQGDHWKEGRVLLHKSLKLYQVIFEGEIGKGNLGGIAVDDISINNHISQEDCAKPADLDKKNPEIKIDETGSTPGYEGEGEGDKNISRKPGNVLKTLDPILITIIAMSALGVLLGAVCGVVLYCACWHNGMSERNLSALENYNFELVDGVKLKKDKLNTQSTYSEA
# This is a selection; strong and weak results do not stand in their true shares. Calls of active or inactive are those of the source.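 Rule for the calls: active = inhibition or corrected inhibition above about 18%, plus a signal ratio from 0.5 to 1.5 (limit read from the data, passing the limit was not always enough); inactive = the rest.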
# Target: Neuropilin-1 (Homo sapiens) (UniProt O14786)
# Experiment: modulators of CendR peptide binding to NRP-1, primary screen, biochemical, fluorescence polarization, uHTS (AID 602438)
# Settings: FAM-RPARPAR peptide binding to NRP-1, fluorescence polarization; at 25 µM; hits give high values
row,Compound,inhibition
1,O=C(OC1CN2CCC1CC2)c1cccc(Cl)c1 (stereo not drawn),inactive: -8.7%
2,C(Cc1nn[nH]n1)Cc1nn[nH]n1,inactive: -9.9%
3,Nc1ccc([As](=O)(O)c2ccc([N+](=O)[O-])cc2)cc1,inactive: 20.7%
4,O=[As](O)(c1ccccc1)c1ccc(O)cc1,inactive: -3.4%
5,CC(=O)NC(SC(=S)N(C)C)C(Cl)(Cl)Cl (stereo not drawn),inactive: -2.2%
6,O=[N+]([O-])c1ncn(CCn2cnc([N+](=O)[O-])n2)n1,inactive: -3.3%
7,O=[N+]([O-])c1ccc(O)c(/C=N/Nc2ccc([N+](=O)[O-])cc2[N+](=O)[O-])c1,inactive: 3.9%
8,O=P(Nc1nc2ccccc2s1)(c1ccccc1)c1ccccc1,inactive: -0.7%
9,C[C@H]1OP(=O)(Oc2ccccc2)[C@H](O)[C@H](O)[C@H]1N=[N+]=[N-] (stereo partly drawn),inactive: -4.7%
10,CN(C)C1(CNC(=O)c2ccc(Cl)c(S(N)(=O)=O)c2)CCCCC1,inactive: -5.2%
11,O=P(Nc1ccccn1)(c1ccc(Br)cc1)c1ccc(Br)cc1,inactive: -7.2%
12,COc1ccc(N)c([N+](=O)[O-])c1[N+](=O)[O-],inactive: 22.4%
13,Nc1ccc(CCCCOc2ccccc2)cc1,inactive: 15.4%
14,c1nnnn1CCn1cnnn1,inactive: -9.5%
15,O=P(Nc1nccs1)(c1ccccc1)c1ccccc1,inactive: 0.2%
16,CC(C)C(=O)NC(Sc1ccccc1)C(Cl)(Cl)Cl (stereo not drawn),inactive: -2.9%
17,CC(=O)Nc1ccc([As](=O)(O)O)c(O)c1,inactive: -4.6%
18,CC(=O)Nc1ccc(Oc2c([N+](=O)[O-])cc([N+](=O)[O-])cc2[N+](=O)[O-])cc1,inactive: 8.5%
19,Cc1ccccc1CN(C)C(=O)COC(=O)C(O)(c1ccccc1)c1ccccc1,inactive: 5.3%
20,C[C@H]1OP(=O)(Oc2ccccc2)C[C@@H]2O[C@@H]21 (stereo partly drawn),inactive: -7.8%
21,C[C@@H]1C=CCP(=O)(Oc2ccccc2)O1 (stereo partly drawn),inactive: 15.5%
22,CC(=O)c1ccc(N2CC2c2ccncc2)cc1 (stereo not drawn),inactive: 11.5%
23,N#C/C(=C\c1ccc(N(CCBr)CCBr)cc1)C(N)=O,inactive: -27%
24,COC(=O)C1(C)COP(=O)(NCc2ccccc2)OC1 (stereo not drawn),inactive: 12.4%
25,CC(C)(C)C(=O)NC(Sc1ccccc1)C(Cl)(Cl)Cl (stereo not drawn),inactive: -3.7%
26,CCc1cc(O)c([N+](=O)[O-])c(C)c1[N+](=O)[O-],inactive: 2%

row,Compound,inhibition
1,O=P1(Nc2nc3ccc(Cl)cc3s2)COc2ccccc2O1 (stereo not drawn),inactive: 4.9%
2,CCOc1ccc(C2=NCC(CBr)S2)cc1 (stereo not drawn),inactive: -2.4%
3,CC(NC(=O)COC(=O)C(O)(c1ccccc1)c1ccccc1)c1ccccc1 (stereo not drawn),inactive: 5%
4,Cc1ccccc1OP(=O)(Nc1ccccn1)Oc1ccccc1C,inactive: 7.9%
5,O=c1c2cc([N+](=O)[O-])ccc2[nH]c2c([N+](=O)[O-])cc([N+](=O)[O-])cc12,inactive: -82.3%
6,CN(C)C(=O)Oc1noc2ccccc12,inactive: 11.7%
7,O=C(OC1CN2CCC1CC2)c1ccccc1 (stereo not drawn),inactive: -1%
8,CCC(=O)N1C2C3N(C(=O)CC)C1C1N(C(=O)CC)C(C(N1C(=O)CC)N3C(=O)CC)N2C(=O)CC,inactive: -8%
9,COC(=O)c1cc2c(s1)N=C(c1ccccc1)N(C)P2(=O)N1CCOCC1 (stereo not drawn),inactive: -1.8%
10,CC(=O)NC(SC(=S)N(CC(C)C)CC(C)C)C(Cl)(Cl)Cl (stereo not drawn),inactive: -5.7%
11,Cc1ccc(OP(=O)(Nc2ccccn2)Oc2ccc(C)cc2)cc1,inactive: 2.7%
12,O=P1(N(CCCl)CCCl)OCCC2CCCCN21 (stereo not drawn),inactive: -1.2%
13,c1ccc(-c2nn[nH]n2)c(-c2nn[nH]n2)c1,inactive: -7.6%
14,Cc1ccc(NP(=O)(Oc2cccc(C)c2)Oc2cccc(C)c2)nc1,inactive: -7.6%
15,O=C(NC1CCS(=O)(=O)C1)NP(=S)(Oc1ccccc1)Oc1ccccc1 (stereo not drawn),inactive: 0.9%
16,CCNC(=S)/N=C(\N)N[N+](=O)[O-],inactive: -1.6%
17,Nc1cccc2ccc([As](=O)(O)O)cc12,inactive: 2.6%
18,CCN(N=Nc1nonc1N)c1nonc1N,active: 27.8%
19,Cc1cc(SC(NC(=O)c2ccc(F)cc2)C(Cl)(Cl)Cl)ncn1 (stereo not drawn),inactive: -4.3%
20,CCOP(=O)(Nc1ccccc1)OCC,inactive: 9.3%
21,CN(C(=O)Cc1ccc(Cl)c(Cl)c1)[C@H]1CCCC[C@@H]1N1CCCC1,inactive: -3.4%
22,Cc1ccc(NP(=O)(Oc2ccccc2F)Oc2ccccc2F)nc1,inactive: 3%
23,O=P(Nc1nc2ccc(Cl)cc2s1)(c1ccccc1)c1ccccc1,inactive: -7.4%
24,CN(C)P(=O)(N(C)C)n1c(Nc2ccccc2)nnc1-c1ccccc1,inactive: 0.1%
25,CC(=O)Nc1ccc([As](=O)(O)O)cc1,inactive: 0.7%
26,O=C(O)c1ccccc1[As](=O)(O)O,inactive: 0.1%

row,Compound,inhibition
1,CCCC1OP(N)(=O)OCC1CC (stereo not drawn),inactive: 0.3%
2,O=[N+]([O-])C1C(O)C(O)C([N+](=O)[O-])C(O)C1O (stereo not drawn),inactive: -7%
3,Oc1ccccc1CNc1ccccn1,inactive: -2.2%
4,O=C(NC(Sc1ccncn1)C(Cl)(Cl)Cl)c1ccccc1 (stereo not drawn),inactive: 8%
5,Nc1cc(N)c2nonc2c1[N+](=O)[O-],inactive: -3.8%
6,CC(C)CC(=O)NC(Sc1ccc(Cl)cc1)C(Cl)(Cl)Cl (stereo not drawn),inactive: -3.6%
7,CN1CCCC(OC(=O)C(c2ccccc2)c2ccccc2)C1 (stereo not drawn),inactive: 2.9%
8,Clc1ccc(Cl)c(NC2=NCC(CBr)S2)c1 (stereo not drawn),inactive: 2.7%
9,COc1ccccc1OP(=O)(Nc1ccc(C)cn1)Oc1ccccc1OC,inactive: 10.8%
10,Cc1ccc(OP(=O)(Nc2nccs2)Oc2ccc(C)cc2)cc1,inactive: -2.9%
11,CN(C(=O)Cc1ccc(Cl)c(Cl)c1)[C@H]1CCCC[C@H]1N1CCCC1,inactive: -8.2%
12,Cc1ccc(N/C(=N/P(=O)(N2CCOCC2)N2CCOCC2)N2CCOCC2)cc1,inactive: -9.5%
13,NC(=O)c1cc([N+](=O)[O-])cc([N+](=O)[O-])c1N,inactive: 2.5%
14,CC1CCN(C(=O)Oc2c(Cl)cc(Cl)c3cccnc23)CC1,inactive: -2.5%
15,c1cc(-c2nn[nH]n2)ccc1-c1nn[nH]n1,inactive: -3.2%
16,CC(C)c1nc(Nc2ccccc2)n(P(=O)(N(C)C)N(C)C)n1,inactive: 2.8%
17,CC(C)=N/N=C(\N)N[N+](=O)[O-],inactive: 9.9%
18,CN(C)C(=O)OCCc1n(C)cc[n+]1C,inactive: -1.1%
19,CCN(/C(=N/P(=O)(N1CCOCC1)N1CCOCC1)N1CCOCC1)c1ccc(OC)cc1,inactive: 7.8%
20,Nc1ccc([As](=O)(O)c2ccc(N)cc2)cc1,inactive: 0.1%
21,C[N+]1=C2C=CC=CC=C2SC12C([N+](=O)[O-])=CC([N+](=O)[O-])=C[C-]2[N+](=O)[O-] (stereo not drawn),inactive: 19.2%
22,Cc1ccc(NP(=O)(Oc2ccccc2)Oc2ccccc2)nc1,inactive: -11%
23,O=[N+]([O-])c1cc([N+](=O)[O-])c(CCNc2ccccc2)c([N+](=O)[O-])c1,inactive: 12.2%
24,CCc1nc2c(n1)c1c(non1O)c1c2no[n+]1[O-],inactive: -5.9%
25,CC(=O)N1C2C3N(C(C)=O)C1C1N(C(C)=O)C(C(N1C(C)=O)N3C(C)=O)N2C(C)=O,inactive: 13.3%
26,O=[N+]([O-])c1cccc2n[nH]nc12,inactive: 11.6%

row,Compound,inhibition
1,COc1ccc(C2=NCC(CBr)S2)cc1 (stereo not drawn),inactive: 0.5%
2,O=C(O)CNc1ccc([As](=O)(O)O)cc1,inactive: 2.4%
3,COC(=O)C1(C)COP(=O)(Nc2ccccc2)OC1 (stereo not drawn),inactive: 6%
4,O=[N+]([O-])c1cccc(NC2=NCC(CBr)S2)c1 (stereo not drawn),inactive: 3%
5,O=[N+]([O-])c1ncn(CCn2ncnc2[N+](=O)[O-])n1,inactive: 14%
6,CC(C)(C)C(=O)NC(Sc1ccncn1)C(Cl)(Cl)Cl (stereo not drawn),inactive: 10.8%
7,O=C(Nc1cc([As](=O)(O)O)ccc1O)c1ccccc1,inactive: 3.4%
8,O=P1(N(CCCl)CCCl)OCCCS1 (stereo not drawn),inactive: 19.8%
9,Cc1cc(SC(NC=O)C(Cl)(Cl)Cl)ncn1 (stereo not drawn),inactive: -6.5%
10,O=P(Nc1ccccn1)(c1cccc2ccccc12)c1cccc2ccccc12,inactive: 6.7%
11,O=[N+]([O-])c1ccc(Nc2ccc(Oc3ccc([N+](=O)[O-])cc3[N+](=O)[O-])cc2)c([N+](=O)[O-])c1,inactive: 6.2%
12,CCOC(=O)Nc1cccc([As](=O)(O)O)c1,inactive: 7.7%
13,COP(=O)(OC)N1CC1c1ccccc1 (stereo not drawn),inactive: -14.7%
14,CCCCOc1ccc(C(=O)NCC2(N3CCCCC3)CCCCC2)cc1OC,inactive: -5%
15,Cc1cc(SC(NC(=O)c2ccccc2)C(Cl)(Cl)Cl)nc(C(C)C)n1 (stereo not drawn),inactive: 9.3%
16,O=C(O)C(O)c1ccc(N(CCCl)CCCl)cc1 (stereo not drawn),inactive: -0.4%
17,CCOC(=O)Nc1ccc([As](=O)(O)O)c(O)c1,inactive: -4.9%
18,CC1CCNP(=O)(N(CCCl)CCCl)O1 (stereo not drawn),inactive: 0.2%
19,CCC(C)N(CC(C)C)C(=S)SC(NC(C)=O)C(Cl)(Cl)Cl (stereo not drawn),inactive: 7.5%
20,O=C(OC1CN2CCC1CC2)c1cccc([N+](=O)[O-])c1 (stereo not drawn),inactive: -0.3%
21,CSc1ccc(Nc2c([N+](=O)[O-])cc([N+](=O)[O-])cc2[N+](=O)[O-])cc1,inactive: 6.9%
22,CCOC(=O)c1ccc(NC(=O)C(C)(CCl)SC)cc1 (stereo not drawn),active: 30.1%
23,O=C(O)C(=O)c1ccc(N(CCCl)CCCl)cc1,inactive: 4.8%
24,O=C(COc1ccccc1)OC1CN2CCC1CC2 (stereo not drawn),inactive: 4.8%
25,O=C(Nc1ccncc1[N+](=O)[O-])c1ccc([N+](=O)[O-])cc1[N+](=O)[O-],inactive: 4.2%
